The source of these data is patent US6348445B1, “Biologically active peptides with reduced toxicity in animals and a method for preparing same” (priority 1992, dated 2002).

In brackets after ≈: the same amount, converted by molar mass. Where two headings read alike, the source gives them in different places.

Series [1] has as its system E. coli ATCC strain 25922. Kind of series: Minimal Inhibitory Concentration, microtiter broth dilution. In kind it is cell-based. The text has this:
Table I, which follows, indicates the Minimal Inhibitory Concentration (MIC) in […] of various peptides against S.aureus strain ATCC 25923(S), P. aeruginosa strain ATCC 27853(P), E. coli ATCC strain 25922(E), and C. 4albicans (CA). […] The peptides are unsubstituted at the N-terminal; substituted with an acetyl group at the N-terminal, as indicated by Ac-; substituted with an octanoyl group at the N-terminal, as indicated by Oct-; substituted with spinogosine, as indicated by Sph-; substituted with a succinyl group, as indicated by Suc-; substituted with a hexanoyl group, as indicated by Hex-; substituted with a heptanoyl group, as indicated by Hep-; substituted with a valeryl group, as indicated by Val-; substituted with a myristryl group, as indicated by Myr-; or substituted with an ibuprofyl group, as indicated by Ibu-; […]
The stock peptide solution was diluted in serial dilutions (1:2) down the wells of a microtiter plate so that the final concentrations of peptides in the wells were 0.25, 0.50, 1, 2, 4, 8, 16, 32, 64, 128 and 256 μg/ml. […] The plates were incubated for 16-20 hours at 37° C., and the minimal inhibitory concentration (MIC) for each peptide was determined. […]
The in vitro anti-microbial activities of the methane sulfonate derivatives were determined according to the methods described in Examples 1 and 2. […]
A general note: In broth dilution the organism is exposed to a series of concentrations in liquid medium.

The nature of series [2]: MTD of repeat-dose intraperitoneal administration. In kind it is in vivo, SCID mice. To be noted: for MTD at 504 h: male, SCID (Fox Chase C.B-17/IcrTac-scidfDF), mouse, in vivo, ip. The procedure:
Determinations of a maximal tolerated dose (MTD) of repeat-dose intraperitoneal (i.p.) administration of MSI-344 or MSI-1857 in 60 SCID mice were done. Mice were injected with various doses of MSI-344 or MSI-1857 twice or thrice per week. Survival and body weight were monitored. On a twice per week dosing schedule, the MTDs of MSI-344 and MSI-1857 were 12 and 134 mg/kg/week, respectively. […] On a thrice per week dosing schedule, no deaths occurred in any groups, with high dose groups of MSI-344 and MSI-1857 receiving 90 mg/kg/week and […], respectively. A transient body weight loss was seen after initial dosing in most MSI-344 and MSI-1857 groups. No body weight loss greater than 6% occurred in any group on the thrice per week dosing schedule.
To determine estimates of MTDs of MSI-344 and MSI-1857 when administered intraperitoneally on repeat-dose regimens in SCID mice. The selection of SCID mice was based on the future plans of using this strain as host for xenograft human tumor efficacy models, and a pre-requisite for determining MTD for chronic administration that may be used during the efficacy model.
SCID mice are immunocompromised and therefore they were housed and handled in sterile environments. They had access to sterile water and sterilized chow ad lib.
A 1 mg/mL solution of MSI-344 was made in saline (0.9% sodium chloride injection USP, Abbott, North Chicago, Ill.) corrected for peptide content. Solutions of MSI-344 at concentrations of 0.6, 0.3, and 0.1 mg/mL were made by diluting the 1 mg/mL solution using saline as diluent. A 10 mg/mL solution of MSI-1857 was made in saline.
Solutions of MSI-1857 at concentrations of 6.7, 3.3, 3, 2, and 1 mg/mL were made by diluting the 10 mg/mL solution using saline as diluent.
Mice (four mice per dose group) were intraperitoneally administered MSI-344 or MSI-1857 using an injection volume of 10 mL/kg of the appropriate solution concentration on a twice per week (Groups 1 through 7) or thrice per week (Groups 8 through 15) dosing schedule every week for 20 weeks. Survival was monitored daily and body weights were recorded three times per week An interim analysis was performed at 3 weeks and the results of this interim analysis is presented in the present report.

Take `CC[C@H](C)[C@H](NC(=O)CNCS(=O)(=O)O)C(=O)NCC(=O)N[C@@H](CCCCNCS(=O)(=O)O)C(=O)N[C@@H](Cc1ccccc1)C(=O)N[C@@H](CC(C)C)C(=O)N[C@@H](CCCCNCS(=O)(=O)O)C(=O)N[C@@H](CCCCNCS(=O)(=O)O)C(=O)N[C@@H](C)C(=O)N[C@@H](CCCCNCS(=O)(=O)O)C(=O)N[C@@H](CCCCNCS(=O)(=O)O)C(=O)N[C@@H](Cc1ccccc1)C(=O)NCC(=O)N[C@@H](CCCCNCS(=O)(=O)O)C(=O)N[C@@H](C)C(=O)N[C@@H](Cc1ccccc1)C(=O)N[C@H](C(=O)N[C@@H](CCCCNCS(=O)(=O)O)C(=O)N[C@H](C(=O)N[C@@H](CC(C)C)C(=O)N[C@@H](CCCCNCS(=O)(=O)O)C(=O)N[C@@H](CCCCNCS(=O)(=O)O)C(=O)O)[C@@H](C)CC)C(C)C` [MSI-1857]: the “MIC E. coli ATCC 25922” value in series [1] was determined as 32 mg/L (≈ 9.36 µM). Moreover, the “effect of initial dosings on body weight” value in series [2] (all surviving groups except the low dose group on the thrice-per-week schedule) is “dose-dependent transient body weight loss”. Besides, in series [2] (i.p., SCID mice, interim analysis at 3 weeks), the “MTD, thrice per week dosing schedule” value is reported as “greater than or equal to 90 mg/kg/week”. For the same compound, the MTD at 504 h in series [2] (SCID mice, interim analysis at 3 weeks, read-out: MTD, thrice per week dosing schedule) was at least 12.9 mg/kg/day; in series [2] (SCID mice, interim analysis at 3 weeks, read-out: MTD, twice per week dosing schedule (converted)) it was 19.1 mg/kg/day. Further, in series [2] (twice per week i.p. dosing), the “fold increase in safety index compared to MSI-344” value came out at 11 fold.
